In PMC13031153 (Acta Pharmaceutica Sinica. B, 2025):

System: δ/μ^N-terminal Chimera
Assay type: cell-based, mouse

SMILES: CN1CC[C@]23c4c5ccc(O)c4O[C@H]2[C@@H](O)C=C[C@H]3[C@H]1C5 [morphine]
- agonist-induced K^+ currents: abolished
